Antibody variant affinities, Ab-95 light chain, assay 2

Source: Engelhart et al. 2022 (doi:10.1038/s41597-022-01779-4), MIT Lincoln Laboratory and A-Alpha Bio; data file from the FLAb repository.

The target is the same throughout: PDVDLGDISGINAS, from the HR2 region of SARS-CoV-2 spike.

Each scFv is VH, the linker GGGGSGGGGSGGGGS, VL, as in the parent Ab-95, and differs from it in the CDRs of the light chain only.
VH: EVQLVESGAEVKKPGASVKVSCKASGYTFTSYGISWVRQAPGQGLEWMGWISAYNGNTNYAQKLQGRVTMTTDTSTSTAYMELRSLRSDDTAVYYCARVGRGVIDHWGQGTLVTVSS
VL: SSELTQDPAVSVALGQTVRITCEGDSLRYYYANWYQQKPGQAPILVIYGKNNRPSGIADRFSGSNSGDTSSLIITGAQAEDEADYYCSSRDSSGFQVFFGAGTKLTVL

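Phage display of a naive human antibody library on the peptide gave the parent. AAYL52 was designed without a model: most single CDR substitutions and a random sample of double and triple ones. The scFvs were displayed on barcoded MATa yeast, the peptide on MATalpha yeast. Binding brings cells together so that they mate, and sequencing counts the barcode pairs among the diploids. Scores were corrected for input abundance and mapped to Kd with protein pairs of known affinity run in the same pool. Each pool was mated in three replicate cultures.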

The parent's light chain CDRs are EGDSLRYYYAN, GKNNRPS, SSRDSSGFQVF; each variant's own CDRs replace them letter for letter.
Values are log10 of the apparent Kd in nM; lower means stronger binding.
A pair that was not seen in that replicate is written "n.d."; this usually means weak binding, but a binder can also be missed.
For reference, the parent read 2.31 as the reference entry and 2.25 as a member of this library.
Background: pairings of library AAYL52 with three empty control strains gave a value in 28% of cases (median 3.91, 5th percentile 2.90). Values in that range, when seen in few replicates, are hard to tell from nonspecific mating. The control count says in how many pairings with the empty strains this scFv gave a signal, with their mean in brackets.

CDR-L1	CDR-L2	CDR-L3	log10 Kd (nM) by replicate	empty controls
EGDSGRSYYAN	HKNNRPS	SSRDSSGFQVF	2.78 / 3.58 / 3.58	3/9 (3.51)
EGDSLRYYYAN	GKLMYPS	SSRDSSGFQVF	n.d. / n.d. / n.d.	2/9 (4.17)
EGDSLRYYYAR	GKNNRPS	HSDDSSGFQVF	3.54 / 4.17 / 4.06	3/9 (3.18)
EGDSLRYYYAN	GKNNRHS	SSINSSGFQVF	n.d. / n.d. / n.d.	1/9 (4.60)
EGDSLRYYYQN	MKNNRPS	SGRDSSGFQVF	3.89 / 4.10 / 2.88	5/9 (4.14)
EGDSLFYYYAN	GKENRPS	QSRDSSGFQVF	n.d. / n.d. / 4.06	1/9 (3.32)
EGDSLRYEYAS	GKNNRPS	SSRDSSGFQVW	2.09 / 2.21 / 1.81	2/9 (3.78)
EGDSLRYYYLN	GKNNRPS	SSRDSSGFQQF	n.d. / n.d. / 3.92	4/9 (4.19)
EGDSLRYYYNN	GKNNRPA	SSRDSSGFTVF	3.37 / 2.55 / 2.72	2/9 (3.49)
EGDSLRYYYAN	GTNNRPS	SSRDSSGFMVF	4.01 / 3.06 / 2.66	6/9 (3.49)
EGGSLRYYYAN	TKNNRPS	SSRDSSGFQVF	4.44 / 3.56 / 3.68	4/9 (3.92)
IGDSLRYYYAN	GKNWRPS	SSRDSWGFQVF	n.d. / 3.66 / n.d.	4/9 (3.79)
EGDSLRLYYAN	GKNNRPS	SSRAVSGFQVF	3.02 / 4.90 / n.d.	2/9 (4.03)
EGTSLRYYYAN	GKNNRPS	NVRDSSGFQVF	2.33 / 3.10 / 2.75	2/9 (3.69)
EGDSLSYYYAN	GKNNRMS	SSRDSSGFTVF	3.36 / 3.14 / 3.21	4/9 (4.31)
EGDSLRYYYAC	GKNNRPS	SSRASSGFQSF	n.d. / 5.52 / 4.03	5/9 (3.58)
EGDSLRAYYAN	GKNNRPS	GSRDSSGFQVL	3.13 / 2.68 / 2.39	5/9 (3.77)
ESDSLRYYYAN	DKNNRPS	SSRDSSGFHVF	3.04 / 3.34 / 2.91	5/9 (3.81)
EGDSLRYYYAN	GCNNRPS	SMRDSSGEQVF	3.97 / 3.39 / n.d.	5/9 (4.45)
EGDGGRYYYAN	GKNNRPS	SSRDSSGFNVF	4.29 / 3.56 / n.d.	1/9 (4.14)
EIDSLRYVYAN	GKNNRPS	SSRDSSGFMVF	3.08 / n.d. / 4.22	3/9 (4.08)
EGDSLRARYAN	GNNNRPS	SSRDSSGFQVF	0.65 / 0.52 / -0.13	0/9
EGDSLRCYYAN	DKNNRPS	SSRDSSGFVVF	n.d. / 4.01 / n.d.	1/9 (3.41)
EGDSLCYYYAN	GKNNRPS	ASRDTSGFQVF	3.00 / 3.24 / 2.81	2/9 (4.78)
EGDSDRYYYCN	GKNNRPS	SSRDSSQFQVF	3.94 / 4.38 / n.d.	4/9 (4.14)
EGDSLRYYNAN	GKMNRPS	SSRDSSGFQVF	1.98 / 1.56 / 1.24	2/9 (4.64)
EGDLLRYYYAN	GKNNRPS	SCRDSSGFQVF	n.d. / n.d. / n.d.	0/9
EADSLRYYYAN	GKNNRMS	SHRDSSGFQVF	3.53 / n.d. / 4.50	1/9 (3.34)
EGDSLRYYYAN	GKPNLPS	SSRDSSGFQVY	n.d. / n.d. / n.d.	2/9 (3.11)
EGDSLRYYYAN	GKNNRWS	SSRDSSMSQVF	3.32 / n.d. / 3.21	5/9 (4.14)
EGDSLRYFYAN	GKNNRPS	SSRDNSGFQVF	3.78 / 2.80 / n.d.	1/9 (3.93)
WGDSLRYYYAN	GKNNRPF	SSRDSSGFQVF	2.94 / 2.68 / 2.98	1/9 (4.33)
EGDSLRYYYAN	GKNNRPV	SSRDSSGFQVF	1.89 / 1.75 / 3.71	2/9 (4.52)
EGDCLRYYYAN	GKNNRPH	SSRDSSGPQVF	n.d. / 3.47 / n.d.	1/9 (4.49)
EGDSLRYWLAN	GKNNRPS	SSRESSGFQVF	3.49 / 5.64 / 2.72	4/9 (3.62)
EGDSLRYYYAN	GKNNRPS	TSRDSPVFQVF	3.15 / 2.99 / n.d.	0/9
ESDSLRYYYYN	GINNRPS	SSRDSSGFQVF	n.d. / 3.71 / 3.55	2/9 (3.81)
EGYSLRYYYAN	GKNNRPS	SSSDSSGFQVT	2.92 / 3.71 / 2.57	4/9 (4.40)
EGDSLRWYYAN	GKKNRPS	SSYDSSGFQVF	3.31 / 5.35 / n.d.	0/9
EGDSLRYYYAN	GKNNRRS	SNRDSSGSQVF	n.d. / n.d. / n.d.	2/9 (3.75)
EGDSLRYFYAN	RKNNRPS	SSRDSSVFQVF	4.41 / 4.44 / n.d.	2/9 (3.68)
EGDSCRYYYAN	GKNNRPW	SSRDLSGFQVF	4.30 / n.d. / 3.54	2/9 (3.58)
EGDSLRYYYYN	GKNNRPS	SSRDSSGFQVF	n.d. / n.d. / n.d.	1/9 (3.76)
EGYSLRYYYKN	GKNNRPS	SSRDSSGFQRF	2.63 / 3.33 / 3.35	5/9 (4.05)
EGDSLRYYYAN	GKHNRPV	SSRDSSGDQVF	n.d. / 3.58 / 2.79	3/9 (3.75)
EGWSLGYYYAN	GKNNRPS	SSRDSSGSQVF	2.85 / 3.28 / 3.23	3/9 (3.94)
EGDSLRYYYAN	GGNNRPA	SSRDSSGFQVF	1.57 / 1.49 / 0.58	2/9 (4.42)
EGDSLRYYCAN	GGNNRPS	SSRDSSGFQVF	1.16 / 1.18 / 1.49	1/9 (4.89)
ELDSLRYYYAN	GKNNRPS	FSRDSSGFQSF	5.23 / 3.77 / n.d.	2/9 (3.15)
GGDHLRYYYAN	GKNNRPS	CSRDSSGFQVF	3.02 / 2.76 / 2.60	4/9 (4.70)
EGDSLRYYYYN	GKNSRPS	SSRDSSTFQVF	4.09 / n.d. / n.d.	3/9 (3.38)

From the list, the first 4 with no signal in any replicate:

CDR-L1,CDR-L2,CDR-L3,log10 Kd (nM) by replicate,empty controls
EGDSLRYYYAN,GKLMYPS,SSRDSSGFQVF,n.d. / n.d. / n.d.,2/9 (4.17)
EGDSLRYYYAN,GKNNRHS,SSINSSGFQVF,n.d. / n.d. / n.d.,1/9 (4.60)
EGDLLRYYYAN,GKNNRPS,SCRDSSGFQVF,n.d. / n.d. / n.d.,0/9
EGDSLRYYYAN,GKPNLPS,SSRDSSGFQVY,n.d. / n.d. / n.d.,2/9 (3.11)